# scFv variants of Ab-95 (light chain) against a SARS-CoV-2 spike peptide

Data: MIT Lincoln Laboratory AlphaSeq set, Engelhart et al. 2022, doi:10.1038/s41597-022-01779-4, as distributed in FLAb.

Target peptide (SARS-CoV-2 spike, HR2 region): PDVDLGDISGINAS

Ab-95 is the parent antibody, in scFv form: VH, then a (GGGGS)3 linker, then VL. The heavy chain is unchanged in all variants.
VH: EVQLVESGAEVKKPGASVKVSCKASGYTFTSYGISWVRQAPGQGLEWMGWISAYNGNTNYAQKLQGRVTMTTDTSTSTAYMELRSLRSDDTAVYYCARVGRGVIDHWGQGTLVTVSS
VL: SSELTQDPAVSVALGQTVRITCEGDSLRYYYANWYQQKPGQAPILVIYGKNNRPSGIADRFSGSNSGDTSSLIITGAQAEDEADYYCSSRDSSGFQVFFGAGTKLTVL

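Phage display of a naive human antibody library on the peptide gave the parent. AAYL52 was designed without a model: most single CDR substitutions and a random sample of double and triple ones. The assay is AlphaSeq: two haploid yeast populations carry antibody and antigen on their surface. The frequency of each diploid, read from paired DNA barcodes, reflects how well the two displayed proteins bind. Read counts were normalised to the haploid input and turned into Kd by a linear fit to BCL2-family pairs of known affinity, for each replicate. There are three technical replicates.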

The parent's light chain CDRs are EGDSLRYYYAN, GKNNRPS, SSRDSSGFQVF; each variant's own CDRs replace them letter for letter.
Affinities are written as log10 Kd with Kd in nM; a lower number is a better binder.
Averages over replicates are reported, and they cover detected replicates only.
"no signal" marks a missing value. The strain was present, yet no cells mated with the target were sequenced in any replicate, which points to weak or no binding.

mean, log10 nM | detected | control signals | CDR-L1 | CDR-L2 | CDR-L3
3.92 | 1/3 | 1/9 | EGDSLRYYSAW | GKNNRPS | SSRDSSGFQDF
3.43 | 3/3 | 5/9 | EGDSLRYMRAN | GKNNRPS | SSRDSSGIQVF
no signal | 0/3 | 3/9 | EGDSLRSYYAN | GKNNPPS | SSRDSSGYQVF
3.14 | 3/3 | 6/9 | EVDSLRYYYAN | GKNLRPS | SSRPSSGFQVF
2.90 | 3/3 | 7/9 | EGDSLRYYYAN | GKNNRPA | SSRDSSGPKVF
3.29 | 1/3 | 3/9 | EGDSLRYYYLN | GKNNRAS | SSQDSSGFQVF
1.74 | 3/3 | 4/9 | EGDSLEYYYAN | GKNNRAS | SSRDSSGFQVF
2.43 | 3/3 | 4/9 | EGGSLRYYYAN | GKNNRPS | SSRASTGFQVF
3.84 | 2/3 | 1/9 | EGDSLRYYYAN | GFNNFDS | SSRDSSGFQVF
3.37 | 1/3 | 3/9 | EGDSLRYYYAN | GKNNRPS | SSCHSSGFHVF
no signal | 0/3 | 2/9 | EGDSLRYYYAN | GKNNWPS | SSRDLSGFQVF
no signal | 0/3 | 0/9 | EMDSLRYYYAN | GKNNLPS | SSRDSSGFQEF
3.18 | 3/3 | 6/9 | EGDSLRYYYAN | AKDRRPS | SSRDSSGFQVF
3.07 | 3/3 | 2/9 | SGDSLRYYYAN | GKNNRPS | SSRCSFGFQVF
4.19 | 2/3 | 4/9 | EGDSLRVYYAN | GKANVPS | SSRDSSGFQVF
4.37 | 2/3 | 2/9 | EGDGLRYYYAN | GKCNRPS | SSRDSSGFQVF
3.60 | 1/3 | 2/9 | EGDSLRYYYAW | VKNNRFS | SSRDSSGFQVF
no signal | 0/3 | 0/9 | EGDSLRYVYAA | GKNNRIS | SSRDSSGFQVF
4.15 | 1/3 | 2/9 | MGDSLRYYYAN | GKNNRPY | SSRDSIGFQVF
no signal | 0/3 | 0/9 | EGDWLRYYYAN | GKNERPS | SSRDSSGFKVF
4.13 | 3/3 | 4/9 | EGDSLRYYYHN | GKNNKPS | SSRDSSGFQVF
no signal | 0/3 | 2/9 | EGDSLRYYYAN | GYNPRPS | SSRDSSGFQVK
3.50 | 1/3 | 4/9 | EGDSLRYYYAM | GKNNTPS | SSRDSSSFQVF
3.24 | 3/3 | 2/9 | EGVGLRYYYAN | GKNNRPS | SSRDSSGFLVF
4.85 | 1/3 | 3/9 | EGDSLRYYYAN | GKNNRPQ | SSNDSSGFMVF
3.95 | 3/3 | 1/9 | EGESLRYYYAN | GKNNRHS | SSRDSSGFQRF
3.06 | 2/3 | 1/9 | EGLSLRYYYAN | GKNNRPS | SSRDSSGFQVP
3.77 | 3/3 | 4/9 | EGDSSRYYYAN | GKNNRPN | SSRDSSGCQVF
4.50 | 1/3 | 4/9 | EGRSLRYYYAN | VKNNRPS | SSRDSQGFQVF
4.01 | 2/3 | 2/9 | EGDSLRYYYAN | VKNNRYM | SSRDSSGFQVF
3.11 | 3/3 | 0/9 | YGDSLLYYYAN | GKNNRPS | SSRDSSGAQVF
3.47 | 1/3 | 1/9 | EGDKLRYYYAN | GKNNRPS | SNRDSSGFQSF
no signal | 0/3 | 0/9 | EGDSLRYIYAE | GKNNRPS | SSRDSKGFQVF
2.64 | 3/3 | 2/9 | GGDSLMFYYAN | GKNNRPS | SSRDSSGFQVF
4.28 | 2/3 | 5/9 | EGDILRLYYAN | GKNNRPC | SSRDSSGFQVF
2.45 | 3/3 | 2/9 | FGDSLRYRYAN | GKNNRPS | SSRDSSVFQVF
2.01 | 3/3 | 5/9 | EGDFLRYQYAN | GKNNRPS | TSRDSSGFQVF
1.97 | 3/3 | 3/9 | EGASLRYYYAN | GKNNRPS | SSRDSSVFHVF
3.50 | 1/3 | 2/9 | EGDSLEYYYAM | GKNNRPS | SSRDSNGFQVF
4.14 | 3/3 | 3/9 | EGDSWRYYYAN | GANNLPS | SSRDSSGFQVF
3.47 | 2/3 | 5/9 | EGDSLRYYYAN | GANNRPS | GSRDDSGFQVF
3.68 | 1/3 | 2/9 | EGDSLRYYKAN | GKNNRPS | VSRDSSPFQVF
2.60 | 3/3 | 4/9 | EGDSLRYYYAN | GKQNRPS | SSRDSSGFLVF
no signal | 0/3 | 1/9 | EGDSLIYYYAE | GKNNRPS | SSRDSSGGQVF
3.35 | 3/3 | 2/9 | CGANLRYYYAN | GKNNRPS | SSRDSSGFQVF
3.57 | 3/3 | 2/9 | WGDSLRYYYAN | GKNNRPS | SSRDSSGFQCF
no signal | 0/3 | 1/9 | EGDEWRYYYAN | GKNNRPS | SSRDSSGFQEF
4.20 | 2/3 | 2/9 | EGDSLRYYYAV | GKNQRPS | SSYDSSGFQVF
2.98 | 3/3 | 1/9 | RGDSLRYYYFN | GKNNRPS | SSRDSSGFQVF
3.61 | 3/3 | 6/9 | EGDSVRYYYAN | GKNNRSG | SSRDSSGFQVF
no signal | 0/3 | 3/9 | FGDSLAYYYHN | GKNNRPS | SSRDSSGFQVF
3.87 | 1/3 | 0/9 | EGSSLRYYYFN | GFNNRPS | SSRDSSGFQVF
1.72 | 3/3 | 1/9 | EGTSLRYYYAN | GKNNRPD | SSRDSSGFQVF
2.66 | 1/3 | 1/9 | EGDSLRYYYAN | NKNKRPS | SSRDSSGFMVF
4.46 | 2/3 | 2/9 | EGDSLRYYYAN | KKNNRPS | SSFDSSGFTVF
2.61 | 3/3 | 3/9 | EGGSLRYYYAN | GKNNRPS | ESRDSSGFQPF
no signal | 0/3 | 0/9 | EGDSNRYWYAN | GKNNTPS | SSRDSSGFQVF
3.11 | 3/3 | 2/9 | EGDSLRYYYAN | GKNNRGS | SSRDSSGIQVF
3.04 | 1/3 | 1/9 | EGDMLRYYYAN | GKNNRPS | SSRFSSGFDVF
3.37 | 1/3 | 4/9 | EGDSLRYMYAN | GNNNRPS | SSRDSSGFQVD
1.84 | 3/3 | 7/9 | EGDSLRYRCAN | GKNNRPS | SSRDSSGFQPF
3.73 | 3/3 | 2/9 | EGDSARYYYAN | GNNNRPS | YSRDSSGFQVF
4.08 | 1/3 | 0/9 | EGDSLRYYYAN | NKNNCPS | SSRDSSGFQYF
3.62 | 3/3 | 1/9 | EGDALRYYYAN | GWNNRPS | SSRDSSGFQWF
3.13 | 1/3 | 6/9 | EGDSLRYYYAF | PKNNRPS | SSRDRSGFQVF
no signal | 0/3 | 1/9 | EGDSLRYYYAN | GKNNWHS | SSRDSNGFQVF

For reference, 11 entries of the list once more:

{"CDR-L1": "EGDSLRYRCAN", "CDR-L2": "GKNNRPS", "CDR-L3": "SSRDSSGFQPF", "mean, log10 nM": "1.84", "detected": "3/3", "control signals": "7/9"}
{"CDR-L1": "EGDFLRYQYAN", "CDR-L2": "GKNNRPS", "CDR-L3": "TSRDSSGFQVF", "mean, log10 nM": "2.01", "detected": "3/3", "control signals": "5/9"}
{"CDR-L1": "SGDSLRYYYAN", "CDR-L2": "GKNNRPS", "CDR-L3": "SSRCSFGFQVF", "mean, log10 nM": "3.07", "detected": "3/3", "control signals": "2/9"}
{"CDR-L1": "EGDSLRYYYAW", "CDR-L2": "VKNNRFS", "CDR-L3": "SSRDSSGFQVF", "mean, log10 nM": "3.60", "detected": "1/3", "control signals": "2/9"}
{"CDR-L1": "EGDSLRYYYAN", "CDR-L2": "GKNNRPA", "CDR-L3": "SSRDSSGPKVF", "mean, log10 nM": "2.90", "detected": "3/3", "control signals": "7/9"}
{"CDR-L1": "EGDMLRYYYAN", "CDR-L2": "GKNNRPS", "CDR-L3": "SSRFSSGFDVF", "mean, log10 nM": "3.04", "detected": "1/3", "control signals": "1/9"}
{"CDR-L1": "EGDSWRYYYAN", "CDR-L2": "GANNLPS", "CDR-L3": "SSRDSSGFQVF", "mean, log10 nM": "4.14", "detected": "3/3", "control signals": "3/9"}
{"CDR-L1": "EGDILRLYYAN", "CDR-L2": "GKNNRPC", "CDR-L3": "SSRDSSGFQVF", "mean, log10 nM": "4.28", "detected": "2/3", "control signals": "5/9"}
{"CDR-L1": "EGDSLRYYYAN", "CDR-L2": "VKNNRYM", "CDR-L3": "SSRDSSGFQVF", "mean, log10 nM": "4.01", "detected": "2/3", "control signals": "2/9"}
{"CDR-L1": "EGDSLRYYYAN", "CDR-L2": "GYNPRPS", "CDR-L3": "SSRDSSGFQVK", "mean, log10 nM": "no signal", "detected": "0/3", "control signals": "2/9"}
{"CDR-L1": "EGDSLRYYYAN", "CDR-L2": "GANNRPS", "CDR-L3": "GSRDDSGFQVF", "mean, log10 nM": "3.47", "detected": "2/3", "control signals": "5/9"}

For reference, the parent read 2.31 as the reference entry and 2.25 as a member of this library.
As a blank, each scFv also met three strains without target: over library AAYL52, 28% of these pairings were detected, typically at 3.91 and seldom below 2.90. Also given: how often the same scFv was detected with the empty control strains.